In paper PMC12557380, “Optimization of 2,8-Diaryl-1,5-naphthyridines as Plasmodium falciparum Phosphatidylinositol 4‑Kinase Inhibitors with Improved ADME Profiles and In Vivo Efficacy” (Journal of Medicinal Chemistry, 2025):
Several values for one entry are separate records, joined by “and”; a condition that tells them apart may be missing. Equal entries are not always repeated.

How the values were obtained:
[1] = test system: P. falciparum PI4K cKD line
in vitro = details: human, Caco-2

Row | Compound | fold shift [1] | efflux ratio (in vitro) | fold decrease in IC50 under the knockdown condition ([1]; no aTc vs aTc)
1 | Cn1ccc(-c2ccc3nccc(-c4cccc(S(C)(=O)=O)c4)c3n2)cc1=O [Compound 19, 1-Methyl-4-[8-(3-methylsulfonylphenyl)-1,5-naphthyridin-2-yl]pyridin-2-one] | 9.3 and 8.0 and 7.7 | 2.3 | 
2 | CS(=O)(=O)c1cccc(-c2ccnc3ccc(N4CCC(O)CC4)nc23)c1 [Compound 21, 1-[8-(3-Methylsulfonylphenyl)-1,5-naphthyridin-2-yl]piperidin-4-ol] | 6.0 and 6.6 and 5.5 | 1.2 | 6.0 fold
